Legend:
[1] = Hydrophobicity by reverse phase HPLC under isocratic conditions; assay type: physicochemical; settings: isocratic RP-HPLC, pH 7.3; human insulin as reference (k'rel = 1)
[2] = tested on: duodenum lumen enzymes; test: Degradation of insulin analogs using duodenum lumen enzymes; assay type: in vitro ADME, SPD rats; settings: rat duodenum enzymes, pH 7.4, 37° C.; for Duodenum degradation. Relative stability vs. human insulin: half time divided by half time of human insulin; for Duodenum degradation. Relative stability vs. A14E, B25H, desB30 human insulin: half time divided by half time of reference insulin

Substance: A14E, B25H, B29K(N^ε (N-Octadecandioyl-N-carboxymethyl)-beta-alanyl), desB30 Human Insulin [Example 6]
- Relative hydrophobicity, k'relderiv [1]: .19

Substance: A14E, B25H, B29K(N^ε(5-Eicosanedioylaminoisophthalic acid)), desB30 Human Insulin [Example 47]
- Duodenum degradation. Relative stability vs. human insulin [2]: 7
- Duodenum degradation. Relative stability vs. A14E, B25H, desB30 human insulin [2]: 0.6

Substance: A14E, B25H, B29K(N^εOctadecanedioyl-γGlu-Abu-Abu-Abu-Abu), desB30 Human Insulin [Example 41]
- Duodenum degradation. Relative stability vs. human insulin [2]: 8.4
- Duodenum degradation. Relative stability vs. A14E, B25H, desB30 human insulin [2]: .7
